Measurements reported in patent US8951752B2, “N-demethyase genes and uses thereof” (priority 2011, dated 2015).

Tested on: Pseudomonas sp. CBB1

## Cn1c(=O)c2c(ncn2C)n(C)c1=O [Caffeine, 1,3,7-trimethylxanthine]
Black tea extract
  caffeine degradation: About 40%
Black tea extract, 8.3 mM caffeine, OD600 20
  period of caffeine degradation: 250 min
Control solution, 8.3 mM caffeine in KPi buffer
  time to complete caffeine degradation: less than 100 minutes
